Source: ChEMBL document CHEMBL4325901, “Novel multitarget-directed ligands targeting acetylcholinesterase and σ1 receptors as lead compounds for treatment of Alzheimer's disease: Synthesis, evaluation, and structural characterization of their complexes with acetylcholinesterase” (Eur J Med Chem, 2019)

Amino acid sequences for entries named in this document (tags omitted). A change or cut given only in a name is not applied to a line headed by its entry.
UniProt P22303: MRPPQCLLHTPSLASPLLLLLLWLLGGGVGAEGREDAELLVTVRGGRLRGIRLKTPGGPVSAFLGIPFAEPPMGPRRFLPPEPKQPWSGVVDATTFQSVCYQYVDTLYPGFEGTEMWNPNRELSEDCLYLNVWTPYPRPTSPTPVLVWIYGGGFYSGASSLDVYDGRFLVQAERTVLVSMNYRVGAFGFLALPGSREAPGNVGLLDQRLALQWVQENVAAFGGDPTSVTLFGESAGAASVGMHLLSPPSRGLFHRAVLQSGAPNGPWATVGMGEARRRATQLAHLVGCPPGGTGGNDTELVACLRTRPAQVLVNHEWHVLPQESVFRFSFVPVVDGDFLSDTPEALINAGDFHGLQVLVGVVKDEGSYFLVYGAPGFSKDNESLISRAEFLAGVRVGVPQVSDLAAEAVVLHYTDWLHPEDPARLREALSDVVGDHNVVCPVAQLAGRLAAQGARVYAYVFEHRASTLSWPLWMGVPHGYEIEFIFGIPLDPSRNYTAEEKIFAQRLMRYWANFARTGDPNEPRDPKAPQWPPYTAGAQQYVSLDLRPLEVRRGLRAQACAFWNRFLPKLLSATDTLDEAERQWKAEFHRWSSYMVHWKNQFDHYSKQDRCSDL

Biological target: Acetylcholinesterase (Homo sapiens, UniProt P22303)
Assay: Inhibition of AChE (unknown origin)

`COc1cc(N)c(Cl)cc1C(=O)CCC1CCN(CC2CCCCC2)CC1` gave a Ki of 16 nM.
